Values of other authors, collected in US20030035774A1, “Salt/ion pair medicinal aerosol formulation” (priority 2001, published 2003).
Like-named read-outs stand apart in the source and are kept apart here.

Legend:
[1] = aerosolized insulin delivered into the lung; multiple studies, results quite variable

Q: For insulin, which half-life [1] is on record?
A: 15 to 25 min

Q: What about the bioavailability (aerosolized insulin given peripherally into the lung of rabbits) of the same substance?
A: over 50.7%

Q: What about the bioavailability (liquid insulin dripped into the central airways, rabbits) of the same substance?
A: 5.6%
